# Antibody variant affinities, Ab-14 heavy chain, assay 1

Source: Engelhart et al. 2022 (doi:10.1038/s41597-022-01779-4), MIT Lincoln Laboratory and A-Alpha Bio; data file from the FLAb repository.

Antigen: PDVDLGDISGINAS, a 14-residue peptide of the SARS-CoV-2 spike HR2 region.

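Library AAYL49 holds single substitutions and randomly drawn double and triple substitutions in the CDRs. Affinity was read by AlphaSeq, a pooled yeast mating assay with surface-displayed partners. The frequency of each diploid, read from paired DNA barcodes, reflects how well the two displayed proteins bind. The ratio of observed to expected reads was calibrated, replicate by replicate, on BCL2-family standards whose Kd was known from biolayer interferometry. Mating was done three times.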

Parent: Ab-14, a human scFv built as VH, a (GGGGS)3 linker, VL. Only the CDRs of the heavy chain vary.
VH: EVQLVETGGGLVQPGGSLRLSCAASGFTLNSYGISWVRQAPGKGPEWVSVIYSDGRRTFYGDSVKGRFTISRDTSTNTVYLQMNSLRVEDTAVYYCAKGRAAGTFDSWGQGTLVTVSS
VL: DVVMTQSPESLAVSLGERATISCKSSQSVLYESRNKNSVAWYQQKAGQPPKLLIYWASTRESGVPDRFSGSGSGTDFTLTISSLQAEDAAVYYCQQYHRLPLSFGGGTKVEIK

Positions count from residue 1 of the parent VH; F27H puts H in place of F.
Scale: log10 of Kd in nM, estimated from mating counts; low values are strong binders.
A mean of the replicates is given; it leaves out those without a signal.
Where no diploid with the target was found in any replicate, the entry reads "nd": below detection, most likely a poor binder, though not proof of it.
Background: pairings of library AAYL49 with three empty control strains gave a value in 15% of cases (median 4.06, 5th percentile 2.83). Values in that range, when seen in few replicates, are hard to tell from nonspecific mating.

changes,"mean, log10 nM",replicates with signal
F27H L29R I34G,3.48,1 of 3
L29Q V50Y T58L,3.75,3 of 3
Y32G V50E F59R,nd,0 of 3
S31R I34T F59P,3.12,1 of 3
T28N R57P V64F,nd,0 of 3
F27P G99N S107P,3.43,1 of 3
D54M S63G G103F,4.37,2 of 3
F27A R56K,nd,0 of 3
N30S R100L S107R,2.19,2 of 3
F27Y F59P A102T,4.66,1 of 3
V50R T104L S107N,nd,0 of 3
V50M G99I,5.62,3 of 3
G99V A101V T104A,2.32,3 of 3
F27G T28E S31R,2.17,3 of 3
F27K G61T S107W,1.71,3 of 3
Y32M S53M G61I,nd,0 of 3
G55K T58Q A102K,nd,0 of 3
R56M T58Y G61P,4.10,2 of 3
D62Y R100G D106P,nd,0 of 3
L29D N30P G55R,3.94,1 of 3
S31C V64Y S107L,3.39,2 of 3
Y60P V64M A101D,4.28,3 of 3
R56Q V64C A102G,3.50,3 of 3
N30A R56I T58E,1.24,3 of 3
G55I S63Y F105A,nd,0 of 3
I51K F59Q K65L,4.62,1 of 3
Y32M S35G I51M,4.93,2 of 3
S35F R56T S63W,nd,0 of 3
F27R G99I D106G,nd,0 of 3
S31K S35H S63V,1.39,3 of 3
Y32Q T104L D106N,nd,0 of 3
G55S F105S D106K,1.85,1 of 3
G26C Y32S I34W,4.04,2 of 3
L29C Y60D T104A,nd,0 of 3
T58V V64Y G103W,3.13,1 of 3
S31T G61T D62I,5.17,2 of 3
I51E Y60R V64I,nd,0 of 3
R57L K65W T104C,nd,0 of 3
I34S R57V Y60D,5.03,2 of 3

Further variants, results first:

"mean, log10 nM",replicates with signal,changes
5.82,1 of 3,L29F I34D G55P
3.64,1 of 3,V50A Y52P G55Q
nd,0 of 3,N30P R57V D62K
3.73,3 of 3,F59A K65P T104P
nd,0 of 3,Y32A S53K K65A
3.68,1 of 3,I34G S35C
3.84,1 of 3,F27M T28L A102T
2.97,1 of 3,G33F S35T I51D
nd,0 of 3,D54T T58P S107H
5.16,1 of 3,L29P R56G
3.14,1 of 3,S35L F59I R100C
nd,0 of 3,D54A T58C G61Y
3.99,2 of 3,I34F G55C T58P
nd,0 of 3,N30R Y52K R57W
1.33,3 of 3,F27S A102G F105K
4.51,1 of 3,G61V V64T R100Y
4.59,2 of 3,S53T G61T G99I
3.67,2 of 3,I51W Y60Q V64N
3.32,1 of 3,I34R V50T S107G
5.05,3 of 3,F27H Y52L A102Q
4.76,1 of 3,Y32N A102V D106N
nd,0 of 3,T28P S31Q V50P
nd,0 of 3,F27Q I34V D62W
nd,0 of 3,I51G R57C
nd,0 of 3,V50F S63F K65E
nd,0 of 3,N30I Y60F
4.38,2 of 3,S31N V50T Y60M
0.61,3 of 3,R100K A101S D106S
nd,0 of 3,F59R G61P K65Y
1.00,3 of 3,N30D A102N
2.41,1 of 3,G33T S35L G103S
4.98,3 of 3,I51A D106R S107A
5.62,2 of 3,S35T S53C G99S
nd,0 of 3,G33S V64Q G99F
3.84,2 of 3,Y52C D54T Y60E
nd,0 of 3,R57A F59T S107R
nd,0 of 3,R56W G99Q D106M
4.04,1 of 3,T28E Y52I R56D
3.96,2 of 3,F27R N30R
3.83,1 of 3,S35M F59I D106A

The closing 8 entries, repeated:

changes,"mean, log10 nM",replicates with signal
S35T S53C G99S,5.62,2 of 3
G33S V64Q G99F,nd,0 of 3
Y52C D54T Y60E,3.84,2 of 3
R57A F59T S107R,nd,0 of 3
R56W G99Q D106M,nd,0 of 3
T28E Y52I R56D,4.04,1 of 3
F27R N30R,3.96,2 of 3
S35M F59I D106A,3.83,1 of 3

Parent in this assay: reference entry 0.65, copy in this library 4.11 (one replicate of three).